# Target: T1, Adenosine receptor A2b (Homo sapiens, UniProt P29275)
# T1 sequence (P29275 whole entry): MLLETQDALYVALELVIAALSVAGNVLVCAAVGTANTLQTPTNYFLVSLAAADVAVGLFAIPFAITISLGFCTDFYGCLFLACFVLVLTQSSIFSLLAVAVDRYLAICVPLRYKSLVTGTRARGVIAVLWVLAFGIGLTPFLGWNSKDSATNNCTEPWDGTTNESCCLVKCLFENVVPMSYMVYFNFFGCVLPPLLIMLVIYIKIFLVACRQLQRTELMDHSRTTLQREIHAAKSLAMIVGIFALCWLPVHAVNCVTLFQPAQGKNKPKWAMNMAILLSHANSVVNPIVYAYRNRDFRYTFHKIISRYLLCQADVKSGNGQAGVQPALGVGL
smiles,measurement,value
Nc1nc2ccc(Cl)cc2c2nc(-c3ccco3)nn12,Ki,44 nM

# Source: BindingDB's records for doi:10.1007/pl00005326 (Schering-Plough Research Institute, 1999)
